GI50 and TGI data for one compound are collected here from PubChem BioAssay (NCI).

The assay relates to MDA-MB-468 breast. The assay can be described thus: inhibition of tumour cell growth, NCI panel, 48 h.

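Each compound was tested at five concentrations against cells in 96-well plates for 48 hours. GI50 is the concentration that inhibits growth by half. Definition used: TGI = concentration required for complete inhibition of growth.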

As for `Cc1ccc(S(=O)(=O)n2cc([C@@]3(O)C[C@H](CC#N)OC3=O)c3ccccc32)cc1`, the GI50 is 2810 nM and the TGI worked out at 36.1 µM.
